Assay results: ChEMBL document CHEMBL1157459 (J Med Chem, 2008)

By UniProt entry, the sequences of proteins in these tests, tags left out. Where a name states a change or a piece, a line headed by the entry shows the natural chain unless it says otherwise.
UniProt P24046: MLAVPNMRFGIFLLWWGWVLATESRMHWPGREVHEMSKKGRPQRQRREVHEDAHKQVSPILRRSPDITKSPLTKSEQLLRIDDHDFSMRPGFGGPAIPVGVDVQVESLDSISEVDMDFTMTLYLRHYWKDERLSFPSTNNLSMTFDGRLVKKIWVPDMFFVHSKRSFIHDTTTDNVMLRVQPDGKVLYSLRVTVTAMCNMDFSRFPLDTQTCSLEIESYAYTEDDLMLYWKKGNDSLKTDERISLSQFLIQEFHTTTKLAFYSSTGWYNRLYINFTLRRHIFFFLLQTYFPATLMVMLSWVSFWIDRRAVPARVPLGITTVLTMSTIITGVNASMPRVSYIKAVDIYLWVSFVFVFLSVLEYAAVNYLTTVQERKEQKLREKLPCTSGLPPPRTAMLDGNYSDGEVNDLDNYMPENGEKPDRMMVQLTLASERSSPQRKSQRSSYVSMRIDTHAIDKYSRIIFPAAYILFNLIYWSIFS

Biological target: Gamma-aminobutyric acid receptor subunit rho-1 (Homo sapiens, UniProt P24046)
Experiment: Antagonist activity at human GABAc Rho1 receptor expressed in Xenopus oocytes assessed as whole cell current production by two electrode voltage clamp method
Assay type: functional, cell-based
Settings: Oocyte

Q: How did the Kb turn out when `CP(=O)(O)CCCN` was run?
A: 800 nM
